The values that follow are results of earlier work, collected in patent US20070292887A1, “Immunohistochemical Methods” (Bayer Pharmaceuticals Corporation, priority 2003, published 2007).

In the data set the test system is keratinocytes (normal skin). The conditions noted are these: before treatment and at approximately day 28 of treatment.

Consider `COc1cc2ncnc(Nc3ccc(F)c(Cl)c3)c2cc1OCCCN1CCOCC1` [ZD1839], for which the “EGFR signaling pathway in serial skin biopsies” value is reported as “inhibition”.
